Binding of CDR-mutated scFvs to a peptide of the spike HR2 region

Values reported by Li et al. 2023, doi:10.1038/s41467-023-39022-2 (FLAb copy).

All variants were tested on one target, the spike HR2 peptide PDVDLGDISGINAS (SARS-CoV-2).

Parent: Ab-14, a human scFv built as VH, three GGGGS repeats, VL. Only the CDRs of the light chain vary.
VH: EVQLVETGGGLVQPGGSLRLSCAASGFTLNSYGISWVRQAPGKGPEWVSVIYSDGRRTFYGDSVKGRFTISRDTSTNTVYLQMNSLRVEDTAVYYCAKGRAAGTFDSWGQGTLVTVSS
VL: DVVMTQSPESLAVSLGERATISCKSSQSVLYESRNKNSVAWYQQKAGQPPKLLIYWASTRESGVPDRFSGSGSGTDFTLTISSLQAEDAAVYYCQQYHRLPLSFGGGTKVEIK

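Phage display of a naive human antibody library on the peptide gave the parent. Designed CDR sequences, proposed from the first random library and measured here. Group labels follow the data file (Ctrl: baseline library sampled from a position-specific scoring matrix, with some repeated check sequences; En: ensemble of fine-tuned language models; GP: Gaussian process model; HC: hill climbing; Gen: genetic algorithm; Gibbs: Gibbs sampling; a sequence that several methods proposed may carry one label only). The assay is AlphaSeq: two haploid yeast populations carry antibody and antigen on their surface. The frequency of each diploid, read from paired DNA barcodes, reflects how well the two displayed proteins bind. The ratio of observed to expected reads was calibrated, replicate by replicate, on BCL2-family standards whose Kd was known from biolayer interferometry. Mating was done six times.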

The parent's light chain CDRs are KSSQSVLYESRNKNSVA, WASTRES, QQYHRLPLS; each variant's own CDRs replace them letter for letter.
Each Kd is an estimate from the mating assay, the geometric mean of the replicates in which the pair was seen; lower is stronger.
An entry "nd" has no value in the source: the pair was not observed among the diploids in any replicate. This suggests poor binding but is not conclusive.
The authors' rule: three or more of the six replicates give a measured affinity, fewer mean a poor binder.
The range of this assay differs from that of the first round, and the authors advise against merging the two.
The parent sequence was in this pool as ten entries: three were never detected, three once, and four in most replicates, with averages from 2.2 nM to 240 nM.
Empty control strains, which show no peptide, gave a signal in 4% of pairings with all light chain designs; the median was 430 nM and 95% of these signals were weaker than 38 nM. No background was subtracted.

CDR-L1,CDR-L2,CDR-L3,group,Kd,detected
KLQQSQLYESRNKNSVA,NASTRSS,QQYHRLPLS,GP_Gen,650 pM,6/6
NFSGSDQYQMQEQGNVA,QTEQKAN,QQYFRLPLT,En_Gibbs,2.4 nM,6/6
KLPQSDLYESRNKNSVA,SASTRES,QQYHRLPLS,GP_Gen,580 pM,6/6
KLPNSTLYESRQKNSVA,MASTRES,QQYHRLPLS,GP_HC,6.1 nM,6/6
KLQQSQEYESRNKNSVA,QASTRES,QQYHRLPLS,GP_HC,730 pM,6/6
KVRQSHLYESRNKNSVA,NASTRES,QQYHRLPLS,GP_HC,690 pM,6/6
KLKQSVGYESRNKSRVA,DNSTRES,QQYDRLPLS,En_HC,290 nM,5/6
HFSQHTMEFMSQNKAIA,EVTTTMT,QQYARLPFI,En_Gibbs,6.9 nM,6/6
KIAQSYLYEDRNKWSVA,NASTRLS,QQYHRLPLS,GP_Gibbs,1.2 nM,6/6
KMSQMVLYESRYDNSVA,WASTHEL,QQYHRLPLS,Ctrl,nd,0/6
KLIQSVAMLSRNKNSIA,DNSTRES,QQYHRLPLS,En_HC,16 nM,6/6
QLDQAYRVGENWKESIA,HGSVRVE,QCYVRLPLS,En_Gibbs,67 nM,5/6
TISTSMRYQSSLKNAIA,NAQTRES,QQYHRLPLS,En_HC,4.2 nM,6/6
KIQQSYLYEDRAKNSVA,NASTRLW,QQYHRLPLS,GP_Gibbs,12 nM,5/6
KVMQSVLYESRNKNSVA,NASQRES,QQYHRLPLS,GP_Gen,480 pM,6/6
SLIPFEQQIMKDLNNIA,NTQVRAS,QQYMRLPFM,En_Gibbs,1.9 nM,6/6
KLSWKSLHGDDRWSAVA,NESVRLA,QQYFRLPIQ,En_Gibbs,5.5 nM,6/6
KLPQSTKYESRNQNSVA,WASTRES,QQYHRLPLS,GP_HC,3.4 nM,6/6
KLSMLVDYMSATHSSVA,QTSTREN,QQYHRLPLS,En_HC,2.5 nM,6/6
KLTDYMQGSIAMDNSIA,QTNIYHE,QQYGRLPLV,En_Gibbs,18 nM,6/6
KSSQSVLYESRNKNSVA,NASTRES,QIYHRLPFS,Ctrl,4.7 nM,6/6
KLSQSVLMESRWKNSVA,DASTREE,QQYHRLPLS,GP_Gibbs,1.5 nM,6/6
KMSQSVLYEGRTKNSVA,NASTRES,QQYHRLPLS,GP_HC,2.1 nM,6/6
NISYHQGEPTNSVNNVA,QTSKRAH,QQYQHLPLC,En_Gibbs,98 nM,6/6
KLRQSTLYESRNTNSVA,EASTRES,QQYHRLPLS,GP_HC,890 pM,6/6
KSSTSVLYESRNKNSVA,SASTRES,QQYSRLPLS,Ctrl,1.7 nM,6/6
KSSQSVLYESNNKNSVA,WASTRED,QQYHRLPLS,Ctrl,6.7 nM,6/6
MFSQSVMTGSFMRNSVA,QTTTREN,QQYDRLPLS,En_HC,7.1 nM,6/6
KHSQSVLYESRNKNNVA,DASTRES,QQYHRLPLS,GP_Gen,560 pM,6/6
KLEQSVDYESRNKNSVA,NASTRES,QQYHRLPLS,GP_Gen,4.5 nM,6/6
KLSQSMQYESRNKNSVA,NASTRES,QQYHRLPLS,GP_Gen,990 pM,6/6
KVDISPHKQGMHKHGVA,DHDMRVS,QQYDRLPLA,En_Gibbs,36 nM,6/6
DLTVNDNGISQMQSSIA,SGVEKCT,QQYSRLPLA,En_Gibbs,67 nM,6/6
IVSQVMSWGIHAKNSIA,EAQTRLN,QQYDRLPLY,En_Gen,68 nM,2/6
KIGGVTNGISRNKNSVA,EQSTREN,QQYNRLPLS,En_HC,1.6 nM,6/6
KLTSITGLEKVKGNNVA,EMETREE,QQYNRLPLS,En_Gen,1.8 nM,6/6
KSSFGVLYESRNKNSVA,WASTRES,QQYHRLPLS,Ctrl,470 nM,1/6
TLTQSVGMESHTKNSVA,DLSTRGS,QQYHRLPLS,En_HC,3.7 nM,6/6
KVQMSWLMSSRMKNQVA,HASMRES,QQYHRLPLS,GP_Gibbs,60 nM,6/6
KSSQAVLYESRNKNSVA,DASIRES,QQYHRLPLS,Ctrl,750 pM,6/6
MVLKEDFGEYAAKDNVA,NAAEKET,QHYARLPLV,En_Gibbs,3.1 nM,6/6
KLVGDMQEDKNPSENIA,EESSVSQ,QQYSRLPLE,En_Gibbs,nd,0/6
QLDQAYRVGGLWKYSIA,HGSMRVQ,QCYVRLPLS,En_Gibbs,nd,0/6
KLTEMFQHTSKNKNNIA,ERSTREQ,QQYHHLPLS,En_HC,2.4 nM,6/6
KLEEEADVITESGNSVA,EMSMVMS,QQYHRLPLA,En_Gibbs,14 nM,6/6
KVSEFMRGLMSRKDSIA,DNETRSN,QQYDRLPLS,En_Gen,44 nM,6/6
NMTLQVRNGENNKYNIA,AEVKRVY,QQYQRLPLM,En_Gibbs,18 nM,6/6
TISGVMMQLSHSKNNVA,EVSMRLD,QQYVRLPLA,En_Gen,16 nM,5/6
KLSQSVLYESRNKMSVA,EASTRES,QQYHRLPLS,GP_Gen,870 pM,6/6
MISQMYNMGQFAINSVA,QAQTRNE,QQYDRLPLT,En_Gen,25 nM,5/6
KLQQQWLYESRNKNSVA,SASTRSS,QQYHRLPLS,GP_HC,530 pM,6/6
ALASTGHQVDSQMQNIA,DGMLRES,QQYNRLPLT,En_Gibbs,14 nM,6/6
KLSQSVLYESRVKNSVA,NASTRES,QQYHRLPLS,GP_Gen,830 pM,6/6
QLDHQLQYDDASKKAVA,EMTEVTT,QQYHRLPLT,En_Gibbs,130 nM,6/6
KMAQSNPYESRNSNSVA,NASYREM,QQYHRLPLS,GP_Gibbs,1.0 nM,6/6
HISQSVGMTQRNKNSVA,ENSTRED,QQYDRLPLS,En_HC,89 nM,6/6
KSDQSELEEQRNKNSVA,SASTRMS,QQYHRLPLS,GP_Gibbs,2.1 nM,6/6
MLSQMWALGMKASNSVA,QASMRFN,QQYHRLPLI,En_Gen,86 nM,2/6
KVSQGVLDESRNKNSVA,WASTREG,QQYHRLPLS,GP_Gibbs,11 nM,6/6
KSSVSVLYESRNKNSVA,DASTRES,QQYHRLPLS,Ctrl,2.6 nM,6/6
LQSQSELLESRNHNSVA,QASTRMD,QQYHRLPLS,GP_Gibbs,850 pM,6/6
KAQQSNEYESRNKWSVA,NASQRED,QQYHRLPLS,GP_Gibbs,2.0 nM,6/6
KSSQSVLYESRNKNSVA,WCNTRES,QQYHRLPLS,Ctrl,nd,0/6
KSSASQEYEDRNKNSVA,HASTREQ,QQYHRLPLS,GP_Gibbs,680 pM,6/6
KSSQSVLYESRNKNSVA,WASTRES,QQYGRLPLS,Ctrl,nd,0/6
KLPQSVLYESRNKNSVA,NASTRMS,QQYHRLPLS,GP_Gen,1.4 nM,6/6
KISMGIEMNTRQNHNMA,EASLKPS,QQYNRLPFA,En_Gibbs,nd,0/6
VLHNTCSDYDMYRNSIA,DAQHREA,QQYYRLPFT,En_Gibbs,3.2 nM,6/6
KFSQSVGYESRNKNSVA,GASTRES,QQYHRLPLS,Ctrl,1.4 nM,6/6
KFSQSVLYESRTKNSVA,EAVTRET,QQYHRLPLS,GP_HC,1.2 nM,6/6
KVSEFMRGLMGRKDSIA,DNNTRSN,QQYDRLPLS,En_Gen,35 nM,6/6
KLSQSYCYGDRNKNSVA,QASTREQ,QQYHRLPLS,GP_Gibbs,590 pM,6/6
MITAGLRGVGRNKNSVA,NAQTRED,QHYHRLPLS,En_HC,12 nM,6/6
KSLISVLDEERNDNSVA,NASHRLS,QQYHRLPLS,GP_Gibbs,3.0 nM,6/6
KSSGSQLYESRNSNSVA,HASTREL,QDYHRLPLS,GP_Gibbs,4.8 nM,6/6
KFMGSMLYESRMENSVA,NASQRES,QQYHRLPLS,GP_Gibbs,1.2 nM,6/6
KFSQAWMYEQRNKNSVA,QASQRES,QQYHRLPLS,GP_Gibbs,390 pM,6/6